Literature values, collected in publication PMC9204313.

Columns and labels:
[1] = biological target: Human fibrinogen (human) (UniProt P02671); assay: SPR; conditions: cited from earlier work
[2] = biological target: CYR61 (Homo sapiens) (UniProt O00622); assay: SPR; conditions: cited from earlier work

For “integrin αD I-domain (from UniProt Q13349)”, the Kd [1] is given as 760 nM and the Kd [2] is given as 290 nM.
